System: HCT-116 human colon tumor xenograft
Experiment: HCT-116 human colon tumor xenograft model

Q: Which results are given for cetuximab [Erbitux®]?
A: survival compared to the vehicle control group (Erbitux 1 mg/dose, COTI-2 25 mg/kg where combined): no significant difference in the mean survival; Mean survival (Day ± SEM) (Erbitux ® 2.0 mg/kg IP Days 1, 4, 7, 10, 13): 13.6 ± 0.73 days; Deaths (Erbitux ® 2.0 mg/kg IP Days 1, 4, 7, 10, 13, N 10): 0

— patent US8138191B2 (dated 2012)
